The numbers were not newly measured in paper PMC7383964 (Chemmedchem, 2020), which cites them from elsewhere.

Sequences of proteins named here, by UniProt entry; tags and fusion partners are left off.
UniProt P35372, whole entry: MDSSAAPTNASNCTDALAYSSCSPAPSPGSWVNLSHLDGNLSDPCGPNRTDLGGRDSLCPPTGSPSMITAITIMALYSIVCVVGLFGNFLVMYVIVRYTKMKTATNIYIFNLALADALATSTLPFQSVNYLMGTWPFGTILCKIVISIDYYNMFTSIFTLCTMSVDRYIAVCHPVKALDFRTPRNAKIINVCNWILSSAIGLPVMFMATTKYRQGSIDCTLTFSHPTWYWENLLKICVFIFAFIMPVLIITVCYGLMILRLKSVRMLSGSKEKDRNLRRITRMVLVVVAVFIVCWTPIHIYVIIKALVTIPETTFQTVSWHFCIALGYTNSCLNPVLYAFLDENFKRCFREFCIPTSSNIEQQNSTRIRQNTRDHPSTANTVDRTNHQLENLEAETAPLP

SMILES strings stand for the structures. pKi: −log10 of the molar value.

One data set has as its target μ‐OR (Homo sapiens, UniProt P35372). The note with it: read-out: K i μ; cited from earlier work.
A further data set relates to κ‐OR. The note with it: read-out: K i κ; cited from earlier work.
The test system of a further data set is δ‐OR. The following applies: read-out: K i δ; cited from earlier work.

`COC12CCC3(CC1C(C)(O)CC(C)(C)c1ccccc1)C1Cc4ccc(O)c5c4C3(CCN1CC1CC1)C2O5` (stereo not drawn): the pKi at μ‐OR is 8.66; in the data set on κ‐OR, 8.38; in the data set on δ‐OR, 8.44.
